“Also recorded” adds a separate entry of the source.
System: T cells
Experiment: d-biotin toxicity / T cell function
Type: cell-based
Settings: tested up to a concentration of 50 mM; listed as d-biotin

`O=C(O)CCCC[C@@H]1SC[C@@H]2NC(=O)N[C@@H]21` [biotin] was tested, and the “toxicity or changes of T cell function” value was “no evidence for toxicity or changes of T cell function; also recorded: could not find evidence for toxicity or changes of T cell function”.

Source: patent US8298782B2, “Reversible MHC multimer staining for functional purification of antigen-specific T cells” (priority 2000, dated 2012)
